Data on one substance can be found in US12686809B2, “Methods and formulations for treating oil-containing porous media for oil recovery” (UNIVERSITY OF WYOMING, priority 2020, dated 2026).

Common to all, as to format: physicochemical
Data set [1] can be described thus: IFT between surfactant solutions and reservoir oil at reservoir conditions. Particulars: about 100° C. and about 1,000 psi. As for the experimental part: (§1) Captive/rising bubble method: The captive/rising bubble method was utilized to measure the dynamic IFT and contact angle at reservoir conditions. This method was performed as follows. The lighter phase was injected through a needle to form a bubble inside the heavier phase. The IFT between the two phases was calculated from the shape of the bubble using the Young-Laplace equation through Axisymmetric Drop Shape Analysis (ADSA). The state-of-the-art interfacial tension and contact angle (IFT/CA) apparatus adopted for the measurements is described and used by S. Saraji et al., Wettability of Supercritical Carbon Dioxide/Water/Quartz Systems: Simultaneous Measurement of Contact Angle and Interfacial Tension at Reservoir Conditions, Langmuir, 29 (2013) 6856-6866. This experimental setup can operate at elevated temperature (up to 200° C.) and pressure (up to 8000 psi). […] For contact angle measurement, a droplet was injected from the needle onto the solid substrate and monitored by capturing several images with time and analyzing them using ImageJ software.
Pendant drop method: The pendant drop method was mainly utilized when the density of the suspended phase is higher than that of the bulk phase. […] The critical micelle concentration (CMC) of cationic surfactants was measured using surface tension measurements between the surfactant solutions and air at ambient conditions. […]

Data set [2] is described as follows: Krafft and cloud point temperatures at reservoir conditions (IFT cell, 6,000 psi). The note with it: about 0.1 wt % in blank brine; about 6,000 psi. As for the experimental part: The cloud points of certain nonionic surfactants were measured at high pressure (about 6,000 psi) and temperature. […] (center panel) and about 99.9° C. (right panel), at a pressure of about 6,000 psi.
(right panel), at a pressure of about 6,000 psi.

Data set [3] can be described thus: Microemulsion phase behavior of surfactant solution/crude oil. Particulars: about 0.1 wt % in blank brine/crude oil; about 120° C. The protocol: Microemulsion phase behavior: The microemulsion phase behavior of surfactants with different structures was investigated with respect to temperature. The effect of surfactant hydrophobic chain length on phase behavior was examined at ambient temperature (about 22° C.) and at elevated temperature (about 80° C.). For these experiments, glass pipettes were filled with brine/crude oil at a ratio of about 1:1 or surfactant solution/crude oil at a ratio of about 1:1. The pipettes were then sealed with a torch and shaken at the speed of about 250 rpm for about 24 hours (h). The pipettes were then monitored for several days and images were recorded.
Microemulsion phase behavior tests can generally be utilized to characterize surfactant stability. The phase behavior of surfactants can depend on distinct parameters such as temperature, surfactant concentration, and/or brine salinity. The effect of temperature on phase behavior was systematically investigated for various surfactants. Here, the phase behavior test was first performed on a pipette containing blank brine and the crude oil.
FIG. 13 is a series of exemplary images showing the phase behavior of cationic surfactants with a chloride head—TOAC, DTAC, CTAC, and TSAC—at ambient temperatures (left panel) and at about 80° C. (right panel). […]

A short description of data set [4]: Contact angle by captive bubble method. The note with it: 0.1 wt % in blank brine; about 100° C. and about 1,000 psi; WWW aged MNC substrate. The protocol:
as §1
Contact angle measurements were performed to investigate, e.g., the effect of wettability alteration on spontaneous imbibition. The contact angles were measured in the IFT cell on MNC aged rock substrates (WWW systems) using the captive bubble method at about 100° C. and about 1,000 psi. […]

Data set [5] in a line: IFT between surfactant solutions and reservoir crude oil at ambient conditions (spinning drop). The note with it: ~0.1 wt % in blank brine. The protocol:
Spinning drop method: The spinning drop method was utilized to measure ultra-low IFT values. The instrumentation included a KRÜSS Spinning Drop Tensiometer was employed and the spinning drop method was performed as follows. A crude oil droplet was launched from a capillary plug into a capillary tube filled with the surfactant solution. While the glass capillary tube was rotating, the software-controlled instrument measured the IFT between oil and brine by analyzing the drop shape which depends on the balance between interfacial and centrifugal forces. At low rotational speeds, the IFT is the dominating force and the droplet is spherical in shape. In this case the software uses Young-Laplace equation to calculate IFT. When the angular velocity is high, the droplet is elongated (length is at least 4 times the diameter) and Vonnegut's equation is used to calculate the IFT.
(§2) Measurement of the IFT between surfactant solutions/reservoir oil at ambient conditions were first performed to, e.g., examine the impact of the hydrophobic chain length on the interfacial properties of cationic surfactants. For these measurements, a KRÜSS Spinning Drop Tensiometer was used.

Data set [6] is described as follows: Density difference between surfactant solution and crude oil. Particulars: ~0.1 wt % in blank brine vs reservoir crude oil; ambient conditions. As for the experimental part: Density: The density of the two phases (oil and brine; or oil and surfactant solution) was measured at atmospheric pressure and 22° C. using a DMA45 density meter from Anton Paar. The density of the two phases was also measured at reservoir conditions (120° C., 6000 psi) using an in-line density meter (DMA HPM, Anton Paar).
as §2

In the case of “Poly (ethylene glycol) tridecyl ether (n = 18) [POE 18]”, the “IFT reduction relative to the blank brine” value in data set [1] is reported as “about 12 mN/m”. Also, in data set [2], the cloud point entry was “about 47.1 °C”. For the same substance, the “phase behavior (in words)” value in data set [3] is “precipitated out of the brine solution”. In addition, the Contact angle in data set [4] is reported as 127.8 °. The “γ (interfacial tension surfactant solution/reservoir oil)” value in data set [5] worked out at 0.715 mN/m. Also, in data set [6], the “Δρ (change in density)” value stood at 0.3822 g/mL.
